The record followed here is patent US5434256A, “Diamine platinum complexes as antitumor agents” (priority 1994, dated 1995).

This data set in a line: Renal and hematological toxicity, single i.p. dose (Table 8).

With `NC1CCC(N)CC1.O.O=C([O-])C1(C(=O)[O-])CCC1.[Pt+2]` [Compound 1, Cis-1,4-diaminocyclohexane-1,1-cyclobutanedicarboxylato-platinum(II).H2 O], under “BUN”, the “nephrotoxicity (in words)” value is “did not show any indication of nephrotoxicity”. For the same compound, the “myelotoxicity / myelosuppression (in words)” value (leucopenia) is “did not show any indication of nephrotoxicity or myelotoxicity”.
